# Source: ChEMBL document CHEMBL5576078, “Discovery of a potent, orally available furopyridine derivative as a novel selective bromodomain and extra-terminal domain (BET)-first bromodomain (BD1) inhibitor” (Bioorg Med Chem Lett, 2024)
# Biological target: Bromodomain-containing protein 4 (Homo sapiens, UniProt O60885)
# Assay: Inhibition of BRD4 BD2 (unknown origin) at 10 uM by TR-FRET assay relative to control
row,inhibition,Structure (SMILES)
1,35%,Cc1cc2c(-c3ccco3)cnc(N[C@@H]3CCN(C)C[C@H]3C(=O)NC3CCCCC3)c2[nH]c1=O
2,14%,C[C@@H]1CN(S(C)(=O)=O)CCN1Cc1cc2c(=O)n(C)cc(-c3nc(Cl)cn3CC3CCOCC3)c2o1
